Sequences of proteins named here, by UniProt entry; tags and fusion partners are left off.
UniProt P32300, whole entry: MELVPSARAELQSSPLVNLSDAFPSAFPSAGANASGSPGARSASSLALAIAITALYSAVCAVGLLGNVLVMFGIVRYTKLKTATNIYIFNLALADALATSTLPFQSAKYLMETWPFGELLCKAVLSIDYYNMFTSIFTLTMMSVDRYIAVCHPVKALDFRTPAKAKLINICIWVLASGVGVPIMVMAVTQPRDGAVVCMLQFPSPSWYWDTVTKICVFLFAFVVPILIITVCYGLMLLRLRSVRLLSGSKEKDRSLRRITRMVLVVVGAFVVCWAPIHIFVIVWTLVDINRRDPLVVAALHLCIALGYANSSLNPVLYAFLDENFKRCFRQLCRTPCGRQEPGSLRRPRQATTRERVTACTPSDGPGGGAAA

According to US4684620A, “Cyclic polypeptides having mu-receptor specificity” (Gibson-Stephens Neuropharmaceuticals, Inc., priority 1984, dated 1987):

Target: T1, delta-type opiate receptors (Mus musculus, UniProt P32300)
T1 construct: from tissue; host or cells: mouse vas deferens
Assay: Mouse vas deferens (MVD) test, electrically stimulated contractions, antagonism of DPDPE
Details: DPDPE alone
Description: The compounds of the present invention were tested for their ability to inhibit electrically stimulated muscle contractions in the guinea pig ileum (GPI) assay and in the mouse vas deferens (MVD) assay.
The mouse vasa deferentia tests were conducted as follows: vas deferens of male mice were placed in a 60 ml tissue bath and attached to a force transducer. Contractions were induced by electrical stimulation. […] Percent inhibition was calculated.

## DPDPE [reference compound]
1 nM
  Percent inhibition of contractions: 6 ± 1%
3 nM
  Percent inhibition of contractions: 11 ± 3%
10 nM
  Percent inhibition of contractions: 22 ± 6%
30 nM
  Percent inhibition of contractions: 42 ± 9%
100 nM
  Percent inhibition of contractions: 53 ± 9%
300 nM
  Percent inhibition of contractions: 77 ± 8%
